# Earlier results, collected in US11723874B2, “Delayed release deferiprone tablets and methods of using the same” (Chiesi Farmaceutici S.p.A., priority 2017, dated 2023).
# Tested on: ALS
smiles,measurement,value
Nc1nc2ccc(OC(F)(F)F)cc2s1 [Riluzole],increase in survival,2-3 months
